pEC50, pIC50: −log10 of the molar value.
What was measured:
CD47 [1] = target: CD47 (UniProt Q08722); test: antibody titration read as mean fluorescence intensity (MFI) against Log[Ab] nM; cells or beads and target are not named on the sheet or in the text, CD47 taken as target because both are anti-CD47 antibodies
CD47 [2] = target: CD47 (UniProt Q08722); test: blocking of the CD47-SIRPα interaction (m14 is the blocked ligand), % inhibition against Log[Ab] nM; assay format not given in the text

Protein sequences, listed by entry. Tags and fused reporters are not part of them. Residues count along the entry.
UniProt Q08722, 19-139 limits assumed: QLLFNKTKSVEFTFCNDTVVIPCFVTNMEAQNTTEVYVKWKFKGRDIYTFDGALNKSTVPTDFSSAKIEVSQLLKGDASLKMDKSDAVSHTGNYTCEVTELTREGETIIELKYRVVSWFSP

“reference antibody 5F9 (Forty Seven, Inc.)” showed a pEC50 (CD47 [1]) of 8.26 and a pIC50 (CD47 [2]) of 8.24.
